Experimental data as given in paper PMC6651196, “Preclinical Evaluation of Radiolabeled Peptides for PET Imaging of Glioblastoma Multiforme” (Molecules, 2019).

Test system: U-87 MG tumor SCID mouse
Settings: female, in vivo

OC[C@H]1OC(O)[C@H](F)[C@@H](O)[C@@H]1O (stereo partly shown) [^18F-FDG, ^18F-fluorodeoxyglucose]
Accumulation in non-targeted tissues: 1–8 % ID/g
